The values below come from BindingDB's records for 24583353.

Chains of the proteins cited; added tags and fusions are not shown.
UniProt P80366, whole entry, looked up: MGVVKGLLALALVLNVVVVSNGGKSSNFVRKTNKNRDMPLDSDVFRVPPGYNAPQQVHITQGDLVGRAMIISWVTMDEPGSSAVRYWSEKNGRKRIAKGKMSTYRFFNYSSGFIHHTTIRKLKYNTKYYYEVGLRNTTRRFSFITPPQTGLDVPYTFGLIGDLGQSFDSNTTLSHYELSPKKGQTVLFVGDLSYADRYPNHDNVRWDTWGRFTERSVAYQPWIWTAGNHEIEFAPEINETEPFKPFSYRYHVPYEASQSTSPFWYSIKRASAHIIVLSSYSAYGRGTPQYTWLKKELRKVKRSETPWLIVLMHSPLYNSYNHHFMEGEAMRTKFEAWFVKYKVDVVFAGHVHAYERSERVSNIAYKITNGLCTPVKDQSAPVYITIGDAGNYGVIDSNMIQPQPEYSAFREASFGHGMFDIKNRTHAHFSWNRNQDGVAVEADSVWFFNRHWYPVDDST

The target of this test is Fe(3+)-Zn(2+) purple acid phosphatase (Phaseolus vulgaris, UniProt P80366).

pKi: −log10 of the molar value.

What is called pKi is the Ki on a negative log10 scale, so that one unit is a factor of ten. The low end stands for a large Ki, the high end for a small Ki. The compound `CCP(=O)(O)O` showed a pKi of 2.12.
